Chains of the proteins cited; added tags and fusions are not shown. Residues count along the entry.
UniProt P35968, 20-764: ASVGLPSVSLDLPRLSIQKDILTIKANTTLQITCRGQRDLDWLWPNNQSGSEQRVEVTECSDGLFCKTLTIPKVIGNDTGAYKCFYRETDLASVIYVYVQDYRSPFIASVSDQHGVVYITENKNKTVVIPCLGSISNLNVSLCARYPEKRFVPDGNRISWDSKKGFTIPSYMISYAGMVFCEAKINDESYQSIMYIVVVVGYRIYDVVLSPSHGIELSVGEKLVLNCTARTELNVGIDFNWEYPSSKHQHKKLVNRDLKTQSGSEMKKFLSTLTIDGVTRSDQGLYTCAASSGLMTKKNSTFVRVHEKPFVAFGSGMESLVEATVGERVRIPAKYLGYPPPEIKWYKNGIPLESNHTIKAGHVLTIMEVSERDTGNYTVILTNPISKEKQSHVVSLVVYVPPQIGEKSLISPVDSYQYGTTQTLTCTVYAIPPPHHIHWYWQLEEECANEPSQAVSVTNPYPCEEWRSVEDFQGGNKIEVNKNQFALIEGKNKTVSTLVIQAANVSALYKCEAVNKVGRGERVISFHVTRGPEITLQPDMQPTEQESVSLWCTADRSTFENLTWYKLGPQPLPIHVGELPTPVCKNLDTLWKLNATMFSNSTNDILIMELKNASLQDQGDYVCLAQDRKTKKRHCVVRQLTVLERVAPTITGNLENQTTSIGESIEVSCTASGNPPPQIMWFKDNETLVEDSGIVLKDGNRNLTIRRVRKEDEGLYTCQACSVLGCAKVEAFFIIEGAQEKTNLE

According to publication PMC4268634:

How the values were obtained:
Assay in all cases: SPR
[1] = biological target: Z_(VEGFR2_22)-(S4G)4-ABD035-(S4G)4-Z_(VEGFR2_40)
[2] = biological target: Z_(VEGFR2_22)-(S4G)4-ABD035-(S4G)4-Z_(VEGFR2_22)
[3] = biological target: Z_(VEGFR2_40)-(S4G)4-ABD035-(S4G)4-Z_(VEGFR2_40)
[4] = biological target: Z_(VEGFR2_40)-(S4G)4-ABD035-(S4G)4-Z_(VEGFR2_22)

koff [1]: 8.4e-05 s⁻¹ | koff [2]: 0.0016 s⁻¹ | koff [3]: 0.0012 s⁻¹ | koff [4]: 0.00015 s⁻¹
Substance: monomeric human VEGFR2 (from UniProt P35968 20-764) (receptor)
